Source: BindingDB's records for patent US10123984

Biological target: Neprilysin (Homo sapiens, UniProt P08473)
Assay: Enzyme NEP Inhibition Assay

Ki: < 1 nM
Compound: O=C(O)C(=O)N[C@H](Cc1ccc(-c2ccccc2)cc1)C[C@@H](CO)C(=O)O [US10123984, Example 6A]
